Antibody variant affinities, Ab-14 heavy chain, assay B

The target is the same throughout: PDVDLGDISGINAS, from the HR2 region of SARS-CoV-2 spike.

Each scFv is VH, a 15-residue (Gly4Ser)3 linker, VL, as in the parent Ab-14, and differs from it in the CDRs of the heavy chain only.
VH: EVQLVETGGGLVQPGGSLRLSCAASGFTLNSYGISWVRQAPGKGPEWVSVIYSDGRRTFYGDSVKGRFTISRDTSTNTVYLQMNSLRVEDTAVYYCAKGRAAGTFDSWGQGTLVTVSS
VL: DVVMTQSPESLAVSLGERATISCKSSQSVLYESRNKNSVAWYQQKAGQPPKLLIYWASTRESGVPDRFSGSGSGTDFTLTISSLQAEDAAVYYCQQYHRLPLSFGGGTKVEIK

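The starting antibody came from a phage panning campaign against this peptide. This is the validation round: designs drawn from the data on random variants, tested in the same kind of assay. Group labels follow the data file (Ctrl: baseline library sampled from a position-specific scoring matrix, with some repeated check sequences; Rand: our label for a block that the file lists under HC and that is probably the random mutants of the ten best first-round binders; En: ensemble of fine-tuned language models; GP: Gaussian process model; GPLM: also part of the Gaussian process libraries; HC: hill climbing; Gen: genetic algorithm; Gibbs: Gibbs sampling; a sequence that several methods proposed may carry one label only). The assay is AlphaSeq: two haploid yeast populations carry antibody and antigen on their surface. Mating (16 h, 30 °C) was followed by selection of diploids and sequencing of their barcodes. The ratio of observed to expected reads was calibrated, replicate by replicate, on BCL2-family standards whose Kd was known from biolayer interferometry. There are six technical replicates.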

Each variant is given by its three heavy chain CDRs, as the data file delimits them; those of the parent are GFTLNSYGIS, VIYSDGRRTFYGDSVK, GRAAGTFDS.
Affinities are written as log10 Kd with Kd in nM; a lower number is a better binder.
A mean of the replicates is given; it leaves out those without a signal.
A pair that was not seen in any replicate is written "nd"; this usually means weak binding, but a binder can also be missed.

| CDR-H1 | CDR-H2 | CDR-H3 | group | mean, log10 nM | replicates with signal | control signals |
|---|---|---|---|---|---|---|
| GFDLNSYGIS | VIYSDGRRTAYGDSVK | GRIAGTFDS | GP_Gen | -0.37 | 6/6 | 0/18 |
| GNTLNEYGIS | VIYSDGRRTFYTDSVK | GRQAGTFDS | GP_HC | 0.82 | 6/6 | 0/18 |
| GFDLNEYGIS | VIYADGMRTAYADDVK | GEVAGTFDL | En_Gen | 0.18 | 6/6 | 0/18 |
| GFNLDEYGIS | VIYADGYRRAYAQEVK | GMNSGEGFT | En_Gibbs | 1.86 | 1/6 | 1/18 |
| GFDLDEYGIS | VIYADGMRTVYADSVK | GENAGTFDQ | En_Gen | -0.79 | 6/6 | 0/18 |
| GFDLNEYGIS | VIYADGMRTAYSDSVK | GQNAGTFDT | En_Gen | -0.41 | 6/6 | 0/18 |
| GKDIDEYGIS | VIYADGRRTFVADSVK | GINSDFVLA | En_Gibbs | nd | 0/6 | 0/18 |
| GFTLNSYGIS | VIYSDGRRTFYGDSVK | GRAVGTFDT | Ctrl | 1.36 | 5/6 | 0/18 |
| GFRLNEYGIS | VIYSDGRRTFYGDSVK | GRQAGTFDS | GP_Gibbs | 0.28 | 4/6 | 0/18 |
| GFTLNSYGIS | VIYSDGRRTFYADSVK | GWVAGTFDT | GPLM_Gibbs | 0.53 | 6/6 | 1/18 |
| GFGLNEYGIS | VIYADGQRKYYADNVK | GHFGEDGQV | En_Gibbs | nd | 0/6 | 0/18 |
| GFTLNEYGIS | VIYSDGRRTFYGDSVK | TRAAVTFDQ | Rand | nd | 0/6 | 0/18 |
| GFDIEEYGIS | VIYADGIRQAYKDSVK | GMNVGRFSV | En_Gibbs | nd | 0/6 | 0/18 |
| KFTLNSYGIS | VIYSDGRRTFYQDKVK | GDAAGTFDE | Ctrl | 1.96 | 5/6 | 0/18 |
| GFNLNEYGIS | VIYADGQRTFYADSVK | GEIAGTFDF | En_HC | 0.33 | 6/6 | 0/18 |
| GFTLNSYGIS | VIYADGRRTFYGDSVK | GRAAGTYKI | GP_HC | nd | 0/6 | 0/18 |
| GFTLNQYGIS | VIYSDGRRTFYADSVK | GRAAGTFDS | GPLM_HC | 0.09 | 6/6 | 0/18 |
| GFTLNSYGIS | VIDSDGRRTFYDDSVK | GQLANTFDS | Rand | nd | 0/6 | 0/18 |
| GFTLNEYGIS | VIYSDGRRTFYGDDVK | GRAAVTFDQ | GPLM_HC | 1.72 | 1/6 | 0/18 |
| GFDLNSYGIS | VIYSDGRRTFYQDSVK | GRQAGTFDA | GP_Gen | 0.11 | 6/6 | 1/18 |
| GFTLNDYGIS | VIYSDGRRTFYGGSVK | GRQAGTVDS | Ctrl | nd | 0/6 | 0/18 |
| GFTLNEYGIS | VIYSDGRRTFYMDDVK | GRFAGTFDS | GP_HC | 1.19 | 6/6 | 0/18 |
| GFELNDYGIS | VIYADGRRTFYGDSVK | GTAAGTFDS | GP_HC | -0.32 | 6/6 | 0/18 |
| GSNLDEYGIS | VIYADGMRQAYIEDVK | GQSGVSVFF | En_Gibbs | nd | 0/6 | 0/18 |
| GFDLNEYGIS | VIYADGRRTFYADSVK | GEIAGTFTF | En_HC | 0.63 | 6/6 | 0/18 |
| GFDLNEYGIS | VIYADGRRTAYSDSVK | GEAAGFFDL | En_HC | 1.16 | 3/6 | 0/18 |
| GFTINSYGIS | VIYSDGRRTFYGDSVK | GRAAGTWPS | Ctrl | nd | 0/6 | 0/18 |
| GFDLNEYGIS | VIYADGMRKAYADSVK | GNNAGTFDM | En_Gen | nd | 0/6 | 0/18 |
| GFDLNSYGIS | VIYSDGRRTFYQDSVK | GKTAGTFDC | GP_Gibbs | 2.72 | 5/6 | 0/18 |
| GETLNSYGIS | VIYSDGRRTFYHDSVK | GRAAGAFDS | Ctrl | nd | 0/6 | 0/18 |
| GFDLNSYGIS | VIYSDGRRTFYFDSVK | GRTAGTFDS | GPLM_Gen | nd | 0/6 | 0/18 |
| GFELNDYGIS | VIYSDGRRTFYIDSVK | GNAAGTFDS | GP_HC | 0.27 | 6/6 | 1/18 |
| GFTLNSYGIS | VIYSDGRRTFWGDSVK | GFAAGTFDS | Ctrl | nd | 0/6 | 0/18 |
| GFDLDEYGIS | VIYADGRRTAYADDVK | GNVAGTFDL | En_Gen | 0.47 | 6/6 | 1/18 |
| GFTINSYGIS | VIYSDGRRTMYGDRVK | GRAAGTFEL | Ctrl | nd | 0/6 | 0/18 |
| GFTLNEYGIS | VIYADGRRTFYGDSVK | GRGAGTFDV | Ctrl | 0.41 | 6/6 | 0/18 |
| GTDLNSYWIS | VIYSDGRRTFYGDSVK | GRMAGTFDS | Ctrl | nd | 0/6 | 0/18 |
| GFTLNSYGES | VIYADGRRTFYGDSVK | GRAAGTNKS | Rand | nd | 0/6 | 0/18 |
| GMGLSEYGIS | VIYADGMRTYYDNSVK | GALAGTFDE | En_Gibbs | 0.89 | 6/6 | 0/18 |
| GFGLNEYGIS | VIYSDGRRTFYADSVK | GKAAGTFDS | GP_Gen | -0.34 | 6/6 | 0/18 |
| GFTLNSYGIS | VIYSDGRRTFYSDSVR | GRAAGTFDL | Ctrl | 1.40 | 6/6 | 0/18 |
| GFALNEYGIS | VIYADGRRTFYGDSVK | GGAAGTFDS | GP_HC | -0.19 | 6/6 | 0/18 |
| GFDLNEYGIS | VIYADGVRTAYADNVK | GEVAGTFDI | En_Gen | -0.64 | 6/6 | 0/18 |
| GFNLNEYGIS | VIYADGQRLSYDDKVK | GDIGGTFND | En_Gibbs | 1.13 | 6/6 | 0/18 |
| GATLNSYGIS | VIYSDGLRTFYGDSFK | GDAAGTFDL | Ctrl | nd | 0/6 | 0/18 |
| GFNLNSYGIS | VIYSDGRRTFYIDSVK | GQAAGTFDS | GPLM_Gen | 2.40 | 6/6 | 0/18 |
| GFGLNEYGIS | VIYSDGRRTFYGDSVK | GRNAGTFDT | GP_Gen | 1.03 | 6/6 | 0/18 |
| GEVLDEYGIS | VIYADGQRVQYSDNVK | GLLSGAFDM | En_Gibbs | nd | 0/6 | 0/18 |
| GFSLNSYGIS | VIYSDGRRTFYGDEVK | GKTAGTFDS | GP_Gibbs | 0.75 | 6/6 | 0/18 |
| GFDLNEYGIS | VIYADGMRTSYADSVK | GETAGTFDL | En_Gen | -0.32 | 6/6 | 0/18 |
| GDSLAEYGIS | VIYADGMRSKYSDSFK | GQVAGYFGV | En_Gibbs | nd | 0/6 | 0/18 |
| GFTLNSYGIS | VIYADGRRTAYGDSVK | GRAAGTFDS | Ctrl | -0.09 | 6/6 | 2/18 |
| GFDLNEYGIS | VIYADGMRTFYADNVK | GQVAGTFDV | En_Gen | 0.23 | 6/6 | 1/18 |
| GFDLNEYGIS | VIYADGVRTSYADSVK | GNVAGTFDI | En_Gen | -0.29 | 6/6 | 0/18 |
| GFTLNSYGIS | VIYSDGRRTFYGDSVK | GVIAGTFDS | Ctrl | 1.13 | 6/6 | 0/18 |
| GFDLNEYGIS | VIYADGRRTAYSDSVK | GEVAGTFDF | En_HC | -0.62 | 6/6 | 2/18 |
| GFQLDEQGIS | VIYADGVRCSYADKVK | GANSGVIDV | En_Gibbs | nd | 0/6 | 0/18 |
| GFDLDEYGIS | VIYADGMRTAYSDSVK | GSNAGTFDM | En_Gen | -0.20 | 6/6 | 0/18 |
| GFTLNSYGIS | VIYSDGRRTFYSDSVK | GRLAGTFDT | GPLM_Gibbs | 0.78 | 6/6 | 0/18 |
| GFGLNEYGIS | VIYSDGRRTFYGDQVK | GRTAGTFDS | GP_Gen | 0.52 | 6/6 | 0/18 |
| GFDLDEYGIS | VIYADGVRTAYSDSVK | GSNAGTFDV | En_Gen | 0.69 | 3/6 | 0/18 |
| GFTLNSYGIS | VIYSDGKRTFYGDRVK | GEAAGTFDT | GP_Gibbs | nd | 0/6 | 0/18 |
| GFTLNSYGIS | VIYSDGRRTAYGDSVK | GKAAGTFDS | Ctrl | 1.09 | 6/6 | 1/18 |
| GFDLNEYGIS | VIYADGMRTYYADSVK | GGNAGTFDV | En_Gen | -0.26 | 6/6 | 0/18 |
| GFALNSYGIS | VIYSDGRRTFYDDSVK | GQTAGTFDS | GP_HC | 0.74 | 6/6 | 0/18 |
| GFTLNSYGIS | VIYSDGRRTFYTDSVK | GLFAGTFDS | GP_HC | 1.65 | 5/6 | 0/18 |
| GFSLNSYGIS | VIYSDGRRTFYDDNVK | GRTAGTFDS | GP_Gen | 0.36 | 6/6 | 0/18 |
| GFTLNRYGIS | VIYSDGRRTFYSDSVK | GEAAGTFDK | GP_HC | 1.92 | 5/6 | 0/18 |
| GFTLNEYGIS | VIYSDGTRTFYGDPVK | GRAAVTPDQ | Rand | nd | 0/6 | 0/18 |
| GFDLNEYGIS | VIYADGKRTFYSDDVK | GNVAGTFDI | En_HC | -0.44 | 6/6 | 1/18 |
| GFNLNDYGIS | VIYSDGRRTFYGDSVR | GRNSGTFMS | Ctrl | nd | 0/6 | 0/18 |
| GFALNSYGIS | VIYSDGRRTFYDDSVK | GQAAGTFDS | GP_HC | 1.56 | 5/6 | 0/18 |

A sequence measured in both rounds can read differently, since the two assays cover different ranges.
In the paper, a design with two or fewer of six values counts as a poor binder.
Three control strains display no target. For all heavy chain designs, 1% of the pairings with them gave a signal, with a median of 2.08 and one signal in twenty below 0.84, so weak values seen in few replicates may be background. For each scFv, signals with the empty controls are counted beside the result.

Values reported by Li et al. 2023, doi:10.1038/s41467-023-39022-2 (FLAb copy).